Experimental data: patent US20240397940A1, “COMPOSITIONS COMPRISING A SATURATED OR UNSATURATED ALIPHATIC ACID AND A NON-IONIC SURFACTANT FOR ENHANCING PENETRATION OF PESTICIDE COMPONENT” (TERRAMERA, INC., priority 2021, published 2024)

What was measured:
Assay type in all cases: in vitro ADME
[1] = system: waxy cuticles of whole soybean leaves; assay: Franz cell leaf penetration of prothioconazole, Agral 90 (Example 10); conditions: penetration ratio of prothioconazole (615 ppm, Proline), trans-3-Hexenoic acid 1,500 ppm and Agral 90 31.1 ppm where included, 24 hours
Description: (§1) This ratio may be expressed based on:
(§2) Several donor solutions were prepared to assess penetration of an azole fungicide, namely prothioconazole, across waxy cuticles of whole soybean leaves. […] Such donor solutions comprised 615 ppm prothioconazole. Certain donor solutions included 1,500 ppm trans-3-Hexenoic acid.
(§3) The permeation period was 24 hours.

[2] = system: waxy cuticles of whole soybean leaves; assay: Franz cell leaf penetration of prothioconazole, Triton X-100 (Example 12); conditions: penetration ratio of prothioconazole (615 ppm, Proline), trans-3-Hexenoic acid 1,500 ppm and Triton X-100 31.3 ppm where included, 24 hours
Description: as §1, §2, §3

[3] = system: waxy cuticles of whole soybean leaves; assay: Franz cell leaf penetration of prothioconazole, Biosoft adjuvants (Example 9); conditions: penetration ratio of prothioconazole (615 ppm, Proline), trans-3-Hexenoic acid 1,500 ppm and Biosoft adjuvant 1,000 ppm where included, 24 hours
Description: as §1
Several donor solutions were prepared to assess penetration of an azole fungicide active ingredient, namely prothioconazole, across waxy cuticles of whole soybean leaves. […] Such donor solutions comprised 615 ppm prothioconazole. Certain donor solutions included an aliphatic acid, namely trans-3-Hexenoic acid. Such donor solutions comprised 1,500 ppm trans-3-Hexenoic acid. […] In this example, the adjuvants tested were non-ionic surfactants comprising C11 linear alcohol ethoxylates (available from Stepan Company of Northfield, IL as Biosoft® N1-5, Biosoft® N1-7, and Biosoft® N1-9).
as §3

[4] = system: waxy cuticles of whole soybean leaves; assay: Franz cell leaf penetration of trans-3-Hexenoic acid, Biosoft adjuvants (Example 1); conditions: penetration ratio of trans-3-Hexenoic acid (1,500 ppm), prothioconazole 615 ppm (Proline) and adjuvant 1,000 ppm where included, 24 hours
Description: as §1
Certain donor solutions included an azole fungicide, namely prothioconazole. […] Such donor solutions comprised 615 ppm prothioconazole. […] In this example, the adjuvants tested were non-ionic surfactants comprising C11 linear alcohol ethoxylates (available from Stepan Company of Northfield, IL as Biosoft® N1-5, Biosoft® N1-7, and Biosoft® N1-9).
as §3

[5] = system: waxy cuticles of whole soybean leaves; assay: Franz cell leaf penetration of trans-3-Hexenoic acid, Triton X-100 (Example 13); conditions: penetration ratio of trans-3-Hexenoic acid (1,500 ppm), prothioconazole 615 ppm (Proline) and Triton X-100 31.3 ppm where included, 24 hours
Description: as §1
Such donor solutions comprised 615 ppm prothioconazole.
as §3

SMILES	Pesticidal Active Ingredient Penetration [1] [%]	Pesticidal Active Ingredient Penetration [2] [%]	Pesticidal Active Ingredient Penetration [3] [%]	Aliphatic Acid Penetration [4] [%]	Aliphatic Acid Penetration [5] [%]
OC(Cc1ccccc1Cl)(Cn1nc[nH]c1=S)C1(Cl)CC1 (centres unmarked) [Prothioconazole, prothioconazole]	1.1	0.7	2.5		
CC/C=C/CC(=O)O [trans-3-Hexenoic acid]				13.7	13.7
